What was measured:
Format in all cases: cell-based, human
[1] = tested on: microphthalmia-associated transcription factor (MITF); assay: MITF protein expression in HEMs; details: pre-treated 60 minutes, 4.0 mM L-tyrosine 48 hours, up to 10 μM
[2] = tested on: DCT; assay: Melanogenic enzyme protein expression, western blot; details: HEMs, pre-treated 60 minutes, 4.0 mM L-tyrosine 48 hours
[3] = tested on: microphthalmia-associated transcription factor (MITF); assay: MITF mRNA expression in HEMs, qPCR; details: pre-treated 60 minutes, 4.0 mM L-tyrosine 48 hours, up to 10 μM
[4] = tested on: TYRP1; assay: Melanogenic enzyme protein expression, western blot; details: HEMs, pre-treated 60 minutes, 4.0 mM L-tyrosine 48 hours
[5] = tested on: DOPA chrome tautomerase (DCT); assay: mRNA expression of melanogenic enzymes, qRT-PCR; details: HEMs, pre-treated 60 minutes, 4.0 mM L-tyrosine 48 hours
[6] = tested on: HEMs; assay: Melanin synthesis in L-tyrosine-stimulated HEMs; details: 3 μM and 10 μM for 60 minutes, then 4.0 mM L-tyrosine 48 hours
[7] = tested on: tyrosinase-related protein 1 (TYRP1); assay: mRNA expression of melanogenic enzymes, qRT-PCR; details: HEMs, pre-treated 60 minutes, 4.0 mM L-tyrosine 48 hours
[8] = tested on: tyrosinase (TYR); assay: mRNA expression of melanogenic enzymes, qRT-PCR; details: HEMs, pre-treated 60 minutes, 4.0 mM L-tyrosine 48 hours

O=C(O)CO [GA, glycolic acid]
MITF protein expression level, effect on the increase by L-tyrosine [1]: no effect
DCT protein expression level, effect on the increase by L-tyrosine [2]: no effect
MITF mRNA expression level, effect on the increase by L-tyrosine [3]: no effect
TYRP1 protein expression level, effect on the increase by L-tyrosine [4]: no effect

CC(=O)Oc1ccc(C=Cc2cc(OC(C)=O)cc(OC(C)=O)c2)cc1 [RTA, resveratryl triacetate]
MITF protein expression level, effect on the increase by L-tyrosine [1]: reduced
DCT mRNA expression level, effect on the increase by L-tyrosine [5]: reduced
DCT protein expression level, effect on the increase by L-tyrosine [2]: reduced
MITF mRNA expression level, effect on the increase by L-tyrosine [3]: reduced
extracellular melanin level, effect on the increase by L-tyrosine [6]: reduced
intracellular melanin level, effect on the increase by L-tyrosine [6]: reduced
TYRP1 protein expression level, effect on the increase by L-tyrosine [4]: reduced
TYRP1 mRNA expression level, effect on the increase by L-tyrosine [7]: reduced
TYR mRNA expression level, effect on the increase by L-tyrosine [8]: reduced

OC[C@H]1O[C@@H](Oc2ccc(O)cc2)[C@H](O)[C@@H](O)[C@@H]1O [arbutin]
MITF protein expression level, effect on the increase by L-tyrosine [1]: no effect
DCT protein expression level, effect on the increase by L-tyrosine [2]: no effect
MITF mRNA expression level, effect on the increase by L-tyrosine [3]: no effect
TYRP1 protein expression level, effect on the increase by L-tyrosine [4]: no effect

Oc1ccc(C=Cc2cc(O)cc(O)c2)cc1 [resveratrol]
MITF protein expression level, effect on the increase by L-tyrosine [1]: reduced
DCT mRNA expression level, effect on the increase by L-tyrosine [5]: reduced
DCT protein expression level, effect on the increase by L-tyrosine [2]: reduced
MITF mRNA expression level, effect on the increase by L-tyrosine [3]: reduced
extracellular melanin level, effect on the increase by L-tyrosine [6]: reduced
intracellular melanin level, effect on the increase by L-tyrosine [6]: reduced
TYRP1 protein expression level, effect on the increase by L-tyrosine [4]: reduced
TYRP1 mRNA expression level, effect on the increase by L-tyrosine [7]: reduced
TYR mRNA expression level, effect on the increase by L-tyrosine [8]: reduced

O=C(CO)Oc1ccc(/C=C/c2cc(OC(=O)CO)cc(OC(=O)CO)c2)cc1 [resveratryl triglycolate]
extracellular melanin level, effect on the increase by L-tyrosine [6]: reduced
intracellular melanin level, effect on the increase by L-tyrosine [6]: reduced

— patent US10662140B2, “Method for skin-whitening using composition containing resveratryl triglycolate” (KYUNGPOOK NATIONAL UNIVERSITY INDUSTRY-ACADEMIC COOPERATION …, priority 2016, dated 2020)
